Data from patent US12227593B2, “Site-specific conjugation of glycosylated monoclonal antibodies with transglutaminase” (Janssen Biotech, Inc., priority 2020, dated 2025).

Assays:
[1] = target: T1, MTG (Streptomyces mobaraensis, UniProt P81453); test: MTG-catalyzed conjugation of 3-APA to mAbs, degree of labeling (DOL) by LC-MS; type: biochemical, S. mobarensis; details: per full mAb
T1 construct: purchased Activa TI or Zedira
T1 sequence (P81453 77-407): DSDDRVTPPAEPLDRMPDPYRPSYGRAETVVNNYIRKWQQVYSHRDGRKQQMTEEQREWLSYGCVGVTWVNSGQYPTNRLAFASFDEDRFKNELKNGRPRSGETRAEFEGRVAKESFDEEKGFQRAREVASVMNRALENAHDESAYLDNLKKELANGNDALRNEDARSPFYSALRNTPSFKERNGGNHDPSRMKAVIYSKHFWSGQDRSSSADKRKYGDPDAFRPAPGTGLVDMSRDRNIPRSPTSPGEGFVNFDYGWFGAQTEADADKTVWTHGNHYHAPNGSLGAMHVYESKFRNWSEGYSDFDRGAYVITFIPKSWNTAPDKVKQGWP
Experimental: To assess the suitability of the mAb variants for MTG-catalyzed conjugation, intact mAbs (1 mg/mL) were reacted with 3-azido propylamine (3-APA; 20-100-fold molar excess) and MTG (Activa TI, 5-20% w/v or Zedira, 5-20 units/mg of mAb) in PBS buffer at 22-37° C. for 30 min to overnight. Reactions were stopped by the addition of MTG blocker (Zedira) to 100 μM and analyzed by LC-MS following deglycosylation with PNGase F and reduction with dithiothreitol. The degree of labeling (DOL) was determined by mass spectrometry.
LC-MS was performed on an Agilent 1260 HPLC system connected to an Agilent G6224 MS-TOF Mass Spectrometer. LC was run on an Agilent RP-mAb C4 column (2.1×50 mm, 3.5 micron) at a flow rate of 1 mL/min with the mobile phase 0.1% formic acid in water (A) and 0.1% formic acid in acetonitrile (Sigma-Aldrich Cat #34688) (B) and a gradient of 20% B (0-2 min), 20-60% B (2-3 min), 60-80% B (3-5.5 min). The instrument was operated in positive electro-spray ionization mode and scanned from m/z 600 to 6000. Mass to charge spectrum was deconvoluted using the Maximum Entropy algorithm and DOL was estimated using relative intensities of the deconvoluted masses corresponding to intact mAb (for intact mass) or mAb heavy chain (for reduced mass) with the addition of multiples of 83 Da (corresponding to 3-APA).
Instrument settings included: capillary voltage 3500V; fragmentor 175V; skimmer 65V; gas temperature 325C; drying gas flow 5.0 L/min; nebulizer pressure 30 psig; acquisition mode range 100-7000 with 0.42 scan rate.

[2] = target: T1, MTG; test: MTG-catalyzed conjugation with different amine substrates, DOL by LC-MS; type: biochemical, S. mobarensis; details: 18 hour reaction at 37° C., substrate 690 uM, Zedira MTG 10 U/mg
[3] = glycosylated mAbs, MTG and 3-APA at 37° C.
[4] = glycosylated mAbs, 4 hour incubation with MTG and 3-APA at 37° C., reduced MS

In the case of WT degly: WT trastuzumab deglycosylated, the “DOL 60 min” value ([1]; MTG and 3-APA at 37° C.) is reported as 1.64, the “DOL 0 min” value [1, 3] is reported as 0 and the “DOL, substrate NH2-MMAF” value [2] is reported as 0.9.

In the case of “Entire CH2 domain: trastuzumab variant, engrafting the corresponding sequence of rat IgG2a”, the DOL [1, 4] is reported as 1-1.4.

With “C′/D and E strands: trastuzumab variant, engrafting the corresponding sequence of rat IgG2a” the DOL [1, 4] was 0.6-0.8.

For trastuzumab [WT], the DOL ([1]; MTG and 3-APA at 37° C. for 1 hour, standard conditions) was 0.5, the “DOL 30 min” value ([1]; MTG and 3-APA at 37° C., 30 min) was 0.1 and the “DOL 60 min” value ([1]; MTG and 3-APA at 37° C.) was 0.18. For the same substance, the “DOL 1 hr” value ([1]; MTG and 3-APA at 37° C., 1 hr) was 0.5, the “DOL 90 min” value ([1]; MTG and 3-APA at 37° C., 90 min) was 0.24 and the “DOL 150 min” value ([1]; MTG and 3-APA at 37° C., 150 min) was 0.36. For the same substance, the “DOL 4 hr” value ([1]; MTG and 3-APA at 37° C., 4 hr) was 0.7, the “DOL 18 hr” value ([1]; different IgG backgrounds, MTG and 3-APA at 37° C., 18 hr) was 1.2 and the DOL [1, 4] was 0.2. For the same substance, the “DOL 0 min” value [1, 3] was 0, the “DOL, substrate 3-APA” value [2] was 1.2 and the “DOL, substrate Azido-PEG3-amine” value [2] was 1.2. The “DOL, substrate NH2-MMAF” value [2] was 0.1, the “DOL, substrate NH2-vcMMAF” value [2] was 0.5 and the “DOL, substrate pentyl amino biotin” value [2] was 1.1.
